Literature values as cited in patent US9409893B2, “Heteroaryl derivatives and uses thereof” (Jacobus Pharmaceutical Company, Inc., priority 2012, dated 2016).

Sequences of proteins named here, by UniProt entry; tags and fusion partners are left off. A change or cut given only in a name is not applied to a line headed by its entry.
UniProt Q12809: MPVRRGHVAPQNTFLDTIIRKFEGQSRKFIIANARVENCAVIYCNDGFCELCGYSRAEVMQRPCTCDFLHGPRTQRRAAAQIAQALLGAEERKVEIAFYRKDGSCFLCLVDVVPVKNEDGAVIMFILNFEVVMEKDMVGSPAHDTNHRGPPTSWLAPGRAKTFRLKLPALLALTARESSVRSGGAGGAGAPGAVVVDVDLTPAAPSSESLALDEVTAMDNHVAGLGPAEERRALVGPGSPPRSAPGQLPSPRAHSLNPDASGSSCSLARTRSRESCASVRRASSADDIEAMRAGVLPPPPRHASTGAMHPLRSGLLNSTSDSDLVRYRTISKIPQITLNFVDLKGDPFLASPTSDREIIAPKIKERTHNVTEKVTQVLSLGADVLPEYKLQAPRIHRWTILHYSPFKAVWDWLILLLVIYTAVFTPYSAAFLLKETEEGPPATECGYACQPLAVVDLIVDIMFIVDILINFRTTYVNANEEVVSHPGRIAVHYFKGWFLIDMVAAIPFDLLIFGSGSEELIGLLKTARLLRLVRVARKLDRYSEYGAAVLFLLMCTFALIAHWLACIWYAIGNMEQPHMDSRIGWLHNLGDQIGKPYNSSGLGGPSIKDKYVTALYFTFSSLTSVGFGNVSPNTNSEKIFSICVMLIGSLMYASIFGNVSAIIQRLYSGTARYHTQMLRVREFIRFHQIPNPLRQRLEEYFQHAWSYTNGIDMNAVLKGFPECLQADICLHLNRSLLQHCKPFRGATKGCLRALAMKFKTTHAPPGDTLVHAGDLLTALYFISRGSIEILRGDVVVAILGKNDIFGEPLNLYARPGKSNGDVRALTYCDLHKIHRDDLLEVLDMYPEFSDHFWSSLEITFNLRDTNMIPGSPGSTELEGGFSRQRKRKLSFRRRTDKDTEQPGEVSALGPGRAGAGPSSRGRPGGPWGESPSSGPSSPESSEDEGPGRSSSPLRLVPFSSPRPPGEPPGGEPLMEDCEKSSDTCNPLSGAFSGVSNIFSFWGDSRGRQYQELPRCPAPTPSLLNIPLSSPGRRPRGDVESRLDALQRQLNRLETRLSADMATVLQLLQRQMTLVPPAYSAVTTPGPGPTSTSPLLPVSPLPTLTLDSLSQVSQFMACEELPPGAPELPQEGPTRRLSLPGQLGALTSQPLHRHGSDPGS

Biological target: hERG potassium channel (Homo sapiens, UniProt Q12809)
Conditions: 90 nM, previous results (positive control rationale); cited from earlier work

## COc1cc(N)c(Cl)cc1C(=O)NC1CCN(CCCOc2ccc(F)cc2)CC1OC (stereo not shown) [Cisapride]
  Inhibition of hERG potassium current: approximately 80%
